pKi: −log10 of the molar value.
Target: Human immunodeficiency virus type 1 protease (Human immunodeficiency virus 1, UniProt Q72874)
Assay: Inhibitory activity against HIV-1 protease expressed in Escherichia coli
Summary of the method: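 HIV-1 protease cloned and heterologously expressed in E. coli, then purified; Ki determined by fluorometric assay, standard error 20%.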

In the case of `CNC(=O)[C@@H](NC(=O)[C@H](OCc1ccc(-c2ccsc2)cc1)[C@H](O)[C@@H](O)[C@@H](OCc1ccc(-c2ccsc2)cc1)C(=O)N[C@H](C(=O)NC)C(C)C)C(C)C`, the pKi was 8.92.
